Data from US20030166548A1, “PLAP polypeptides and methods of producing and using same” (Board of Regents, The University of Texas System, priority 1997, published 2003).

The chains behind the UniProt entries cited, without tags or fusion partners. Residues count along the entry.
UniProt P00630, 34-167 limits assumed: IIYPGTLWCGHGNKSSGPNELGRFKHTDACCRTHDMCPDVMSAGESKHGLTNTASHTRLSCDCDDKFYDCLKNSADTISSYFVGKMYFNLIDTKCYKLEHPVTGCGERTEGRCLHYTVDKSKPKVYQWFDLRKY

Biological target: PLA2 from bee venom (Apis mellifera, UniProt P00630)
Format: biochemical

Q: For `CC[C@H](C)[C@H](NC(=O)CN)C(=O)NCC(=O)N[C@@H](C)C(=O)N[C@H](C(=O)N[C@@H](CC(C)C)C(=O)N[C@@H](CCCCN)C(=O)N[C@H](C(=O)N[C@@H](CC(C)C)C(=O)N[C@H](C(=O)N[C@H](C(=O)NCC(=O)N[C@@H](CC(C)C)C(=O)N1CCC[C@H]1C(=O)N[C@@H](C)C(=O)N[C@@H](CC(C)C)C(=O)N[C@H](C(=O)N[C@@H](CO)C(=O)N[C@@H](Cc1c[nH]c2ccccc12)C(=O)N[C@H](C(=O)N[C@@H](CCCCN)C(=O)N[C@@H](CCCNC(=N)N)C(=O)N[C@@H](CCCCN)C(=O)N[C@@H](CCCNC(=N)N)C(=O)N[C@@H](CCC(N)=O)C(=O)N[C@@H](CCC(N)=O)C(N)=O)[C@@H](C)CC)[C@@H](C)CC)[C@@H](C)O)[C@@H](C)O)C(C)C)C(C)C` [Melittin], which “maximal inhibition of PLA2 enzyme activity” value is on record?
A: Its value is 80%.
